# Values quoted from earlier work, collected in patent publication US20030073069A1, “Drug rescue by redesign of ADMET/PK properties” (priority 2001, published 2003).
# Tested on: P450
# Conditions: induction of a P450
substance,measurement,value
corticotropin,"No. of currently known drug interactions that involve the compound, Induction",9
